# Experimental data taken from patent publication US5723719A, “Transgenic mouse as model for diseases involving dopaminergic dysfunction” (Health Research Inc., priority 1995, dated 1998).
# Like-named read-outs stand apart in the source and are kept apart here.
# Tested on: transgenic mice and control mice
# Details: mouse, in vivo
smiles,measurement,setting,value
CCCN1CCC[C@@H]2Cc3n[nH]cc3C[C@H]21 [quinpirole],Change in baseline net turns after injection,,no significant change in baseline net turns
same,Change in net turns after injection,,dose-related decreases in net turns
same,Change in net turns over baseline levels,,dose-related increase in net turns over baseline levels
same,Change in net turns after injection,"sc, 0.25 mg/kg",no change
same,Change in net turns over baseline levels,"sc, 0.25 mg/kg",not at the 0.25 mg/kg dose
